The list is not random: actives were taken first. Their share in the collection is about 1.3%.
SR-BI DiI-HDL act: SR-BI HDL lipid transfer activation | CHO ldlA[mSR-BI] cells, DiI-HDL uptake fluorescence, 3 h; 100 = double the neutral-control signal | activation, % at 12.5 µM | 0.096% of 320,000 active;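 active means mean replicate activation of at least 60% and every replicate at or above 60%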
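material = CHO ldlA[mSR-BI] cells | medium = Ham's F12 with 0.5% BSA, HEPES 25 mM, pH 7.4 | reagent = fluorescent DiI-HDL, 10 µg/mL final | compound dosing = single-point compound dose | incubation = 3 h, 37 °C | measured by = bottom-read fluorescence, 550/595 nm | measure = HDL uptake via cellular fluorescence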
Yeast UUG start: yeast start codon fidelity modulation; AID 602363; activity score, % at 18.7 µM; S. cerevisiae UUG-firefly luciferase reporter, luminescence/redox ratio; 0.13% of 350,000 active;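 active means replicate mean at a twofold rise or more, about +100% in these data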;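 further: firefly luciferase made from a UUG start codon reports start codon fidelity; reporter light over untreated wells divided by growth signal over untreated wells; some hits fall short of that in this replicate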
INS-1E GSIS act: primary screen for activators of insulin secretion dependent on glucose, INS-1E cells, GLuc reporter luminescence; INS-1E GLuc reporter insulin secretion, 2-3 h; activation, % at 16.6 µM; 0.61% of 370,000 active;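 active means lowest replicate activation of at least 40%, so every replicate reaches that level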
SR-BI DiI inh: blocks mouse SR-BI lipid uptake from DiI-HDL | 0.96% of 320,000 active | Q61009 | ldlA[mSR-BI] CHO cells, DiI-HDL uptake fluorescence, 3 h | inhibition, % at 12.5 µM | AID 488896;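 active means mean replicate inhibition of at least 70% and a set share of replicates each scoring 70 or more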
Of the large screens only hits and unclear results are named; the others gave an inactive call.

Cc1ccc(N(C)S(=O)(=O)c2cccc(C(=O)Nc3ccc(N4CCOCC4)cc3)c2)cc1	none
COc1cccc(-n2c([S-])c(C(=O)Nc3ccc(S(=O)(=O)N4CCOCC4)cc3)[n+]3cc(C(N)=O)ccc23)c1	INS-1E GSIS act 45
Cc1ccc(S(=O)(=O)N[C@@H]2CC[C@@H](CC(=O)NCCN3CCCCC3)O[C@H]2CO)cc1	none (no result: SR-BI DiI-HDL act, SR-BI DiI inh)
C[C@H](CO)N1C[C@H](C)[C@H](CN(C)C(=O)Nc2ccc(C(F)(F)F)cc2)Oc2ccc(NC(=O)Nc3cccc4ccccc34)cc2C1=O	none (no result: SR-BI DiI-HDL act, SR-BI DiI inh)
C[C@H](NC(=O)C[C@H]1C[C@H]2c3cc(NS(C)(=O)=O)ccc3O[C@H]2[C@H](CO)O1)c1ccccc1	none (no result: SR-BI DiI-HDL act, SR-BI DiI inh)
C[C@@H](NC(=O)C[C@H]1CC[C@H]2[C@@H](COC[C@H](O)CN2C(=O)Nc2ccccc2)O1)c1ccccc1	none (no result: SR-BI DiI-HDL act, SR-BI DiI inh)
O=C(N[C@H]1C=C[C@@H](CC(=O)N2CCOCC2)O[C@@H]1CO)c1ccc2c(c1)OCO2	none (no result: SR-BI DiI-HDL act, SR-BI DiI inh)
CC(=O)c1cc(Cl)ccc1OCc1cccc(S(=O)(=O)N2CCOCC2)c1	none (no result: Yeast UUG start)
O=S(=O)(c1cccc(COc2ccc(Cl)cc2Cl)c1)N1CCOCC1	SR-BI DiI inh 72
CC=Cc1ccc2n(c1=O)C[C@H]1[C@H](CO)[C@@H](C(=O)NC3CCC3)N(Cc3ccncc3)[C@@H]21 (mixture of isomers)	none (no result: SR-BI DiI-HDL act, Yeast UUG start, SR-BI DiI inh)
CCCSc1ccc(-c2nn(-c3ccccc3)cc2/C=C(/C#N)C(=O)NCCCOC)cc1	INS-1E GSIS act 50
N#C/C(=C/c1cn(-c2ccccc2)nc1-c1cccc(OCc2ccccc2)c1)C(=O)NCCCn1ccnc1	SR-BI DiI-HDL act 84
CCSc1ccc(-c2nn(-c3ccccc3)cc2/C=C(/C#N)C(=O)NCCCOC)cc1	INS-1E GSIS act 64 (no result: Yeast UUG start)
Cc1ccc(-c2nn(-c3ccccc3)cc2/C=C(\C#N)C(=O)NCc2ccccc2)cc1	none (no result: Yeast UUG start)
CCOc1cccc(-c2nn(-c3ccccc3)cc2/C=C(/C#N)C(=O)NCCCn2ccnc2)c1	none (no result: Yeast UUG start)
COc1ccc(NC(=O)N(C)C[C@@H]2Oc3ccc(NC(=O)C4CCCCC4)cc3CC(=O)N([C@H](C)CO)C[C@@H]2C)cc1	none (no result: SR-BI DiI-HDL act, SR-BI DiI inh)
Cc1ccccc1-c1cnc2c(c1)C(=O)N([C@H](C)CO)C[C@@H](C)[C@@H](CN(C)C(=O)c1cccnc1)O2	none (no result: SR-BI DiI-HDL act, SR-BI DiI inh)
CNC(=O)C[C@H]1CC[C@H]2[C@H](COc3ccc(NC(=O)Cc4cccs4)cc3C(=O)N2C)O1	none (no result: SR-BI DiI-HDL act, SR-BI DiI inh)
CNC[C@H]1Oc2cc(C#CCN(C)C)ccc2S(=O)(=O)N([C@H](C)CO)C[C@@H]1C	none (no result: SR-BI DiI-HDL act, SR-BI DiI inh)
CC(=O)c1ccc(N2CCN(S(=O)(=O)c3ccc(-c4cc(C)no4)s3)CC2)cc1	none
Cc1cc(-c2ccc(S(=O)(=O)N3CCN(C)CC3)s2)on1	INS-1E GSIS act 43
COc1ccc(N2CCN(S(=O)(=O)c3ccc(-c4cc(C)no4)s3)CC2)cc1	INS-1E GSIS act 86
CCCCNc1nc(N)ncc1[N+](=O)[O-]	INS-1E GSIS act 55
CCCCNc1c([N+](=O)[O-])ncn1C	none
CC(O)c1nc2ccc(Cc3ccc4nc(C(C)O)[nH]c4c3)cc2[nH]1 (stereo unspecified)	INS-1E GSIS act 46
COc1cc(OC)cc(-c2c(-c3cccs3)c3cc(-c4ccc(OC)c(OC)c4)ccc3n2C)c1	SR-BI DiI inh 79
COc1cc(OC)cc(-c2c(-c3cccs3)c3cc(-c4ccc5c(c4)OCCO5)ccc3n2C)c1	SR-BI DiI inh 78 (no result: INS-1E GSIS act)
O=C(Nc1ccc2c(c1)[C@H]1C[C@@H](CC(=O)N3CCCCC3)O[C@H](CO)[C@H]1O2)C1CCOCC1	none (no result: SR-BI DiI-HDL act, Yeast UUG start, SR-BI DiI inh)
Cc1ccc(-c2cc(-c3ccc(C)cc3O)[nH]n2)cc1	SR-BI DiI inh 100
Cc1cc(C)cc(N=c2c([N+](=O)[O-])nn(-c3ccc(Cl)cc3)n2O)c1	SR-BI DiI inh 80
CCOC(=O)c1sc(NN=C(C(=O)OC)C(=O)OC)c(C(=O)OCC)c1C	SR-BI DiI inh 74 (no result: Yeast UUG start, INS-1E GSIS act)
COc1ccccc1NS(=O)(=O)c1ccc(N/N=C/c2c(C)nn(-c3ccccc3)c2N2CCCC2)c([N+](=O)[O-])c1	SR-BI DiI inh 90 (no result: Yeast UUG start)
COc1c(/C=N/Nc2ccc([N+](=O)[O-])cc2[N+](=O)[O-])c(C)nn1-c1ccccc1	none (no result: INS-1E GSIS act)
Cc1nn(-c2ccccc2)c(N2CCCC2)c1/C=N/Nc1ccc(S(=O)(=O)Nc2ccccc2)cc1[N+](=O)[O-]	SR-BI DiI inh 125 (no result: Yeast UUG start)
COc1ccccc1NS(=O)(=O)c1cccc(C(=O)N/N=C/c2cn(-c3ccccc3)nc2-c2ccccc2)c1	none (no result: Yeast UUG start)

Source: PubChem (Broad Institute)
